Screens from PubChem BioAssay.
JMJD2E inh: JMJD2E (human) inhibition; B2RXH2; JMJD2E catalytic domain, FDH-coupled NADH fluorescence (FDH is formaldehyde dehydrogenase); Potency, µM (doses to about 57.1 µM), for the others: top-dose activity change, negative = inhibition, actives largely listed as inhibitors; 230,000 compounds, 1.6% hits; AID 2147; active means well fitted inhibition curve with a large enough effect, not every such curve was filed as active; inconclusive means small, poorly fitted or top-dose-only effect, or another doubt; inactive means no such curve, though single readings can be large or run the other way;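 further: potency means the concentration at half of the fitted maximal effect; 0% = wells with enzyme and -100% = buffer wells without enzyme; nearly all actives have a fitted effect of over 50% in size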
ALDH1A1 block: ALDH1A1 (human) enzyme inhibition; P00352; Purified ALDH1A1, NADH fluorescence, propionaldehyde substrate; Potency, µM (titrated, usually from 75.3 µM), for the others: at the highest dose activity, negative = inhibition, hits mostly inhibitors; 220,000 compounds, 7.3% hits; active means well fitted inhibition curve with a large enough effect, not every such curve was filed as active; inconclusive means small, poorly fitted or top-dose-only effect, or another doubt; inactive means no such curve, though single readings can be large or run the other way;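 further: potency means the concentration at half of the fitted maximal effect; plate controls were no enzyme wells and a reference inhibitor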
G9a block: G9a (human) methyltransferase inhibition. Potency, µM (highest dose often 102 µM), without a hit: at the top dose activity, negative = inhibition, hits mostly inhibitors. G9a H3K9 monomethylation, AlphaScreen, 2 h. Q96KQ7. 350,000 compounds, 8.8% hits; further: potency means the concentration at half of the fitted maximal effect; on the % scale 0 is the no-effect control and ±100 the full control effect; nearly all actives have a fitted effect of over 75% in size
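Quantitative HTS format: methyltransferase activity on a biotin-tagged H3K9 peptide is measured by AlphaScreen, using a rabbit anti-monomethyl-H3K9 antibody with streptavidin donor and anti-IgG acceptor beads. Final levels are 20 nM enzyme, 500 nM peptide, 20 uM SAM; 2 h RT.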
LMNA splice mod: LMNA splicing modulation; HeLa LMNA splicing GFP/RFP minigene ratio, 48 h; Potency, µM (series often up to 46.1 µM), without a hit: top-dose ratio change, negative = inhibition, most hits filed as inhibitors; 200,000 compounds, 0.01% hits; active means well fitted inhibition curve with a large enough effect in the signal ratio, with a control signal flat, not every such curve was filed as active; inconclusive means small, poorly fitted or top-dose-only effect, or effect the other way, or a change in a side signal; the % refers to the signal ratio; further: potency means the concentration at half of the fitted maximal effect; on the % scale 0 is the no-effect control and ±100 the full control effect
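Read-out is the ratio of GFP to DsRed2 object intensity, acquired by 488 nm laser-scanning cytometry on HeLa lamin A-EGFP minigene reporter cells. Compound incubation 48 hrs at 37 °C in Opti-MEM with 2% FBS; DMSO 0.5% final.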
miR-21 reporter: raises the signal of a miR-21 reporter | HeLa miR-21 FLuc reporter, luciferase, 48 h | Potency, µM (highest dose often 38.3 µM), inactives show at the highest dose reporter change, positive = more light | 340,000 tested, under 10 active | AID 2288; active = well fitted rising curve with a large enough effect; inconclusive = small, poorly fitted or top-dose-only effect; inactive = no such curve, though single readings can be large or run the other way;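 note: % of control where 0% means no effect; miR-21 action dims this reporter so a rising signal means less miR-21 action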
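HeLa cells stably expressing CMV-driven firefly luciferase with a downstream miR-21 binding sequence, endogenously expressing miR-21, were treated with titrations (up to about 40uM final) for 48 hours at 37 degree Celsius. Luciferase luminescence was read after lysis.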
Sfp inh: qHTS Assay for Inhibitors of Bacillus subtilis Sfp phosphopantetheinyl transferase (PPTase). Potency, µM, inactives show max response, negative = inhibition, most hits filed as inhibitors. Biochemical Sfp PPTase activity, qHTS. AID 1490, 2009. 4'-phosphopantetheinyl transferase ffp (Bacillus subtilis), Q9F4F7. hit rate 3.5% among 310,000; active = well fitted inhibition curve with a large enough effect; inconclusive = small, poorly fitted or top-dose-only effect, or another doubt; inactive = no such curve, though single readings can be large or run the other way;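 also: the enzyme is Sfp with the accession as filed and its product quenches rhodamine fluorescence; potency is read from the fitted curve at half-maximal effect; 0% = enzyme reaction without inhibitor and -100% = no enzyme wells; top concentration of the series not given in the record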
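Buffer: 50 mM Hepes-Na pH 7.6, 10 mM MgCl2, 0.01% Nonidet P-40, 0.01% BSA. Enzyme 15 nM, pre-exposed to compound 15 min; substrates then added and fluorescence change tracked over 30 min.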
Starred values were filed as active, the others as inactive; [ ] = remark or other dose. The list is not random: actives were taken first. Their share in the collection is about 13%. Unless noted, the call rests on the fitted dose curve; in most records, active means well fitted curve in the direction sought with a large enough effect; inconclusive means small, poorly fitted or top-dose-only effect, or another doubt; inactive means no such curve, though single readings can be large; an effect the other way counts as inactive or inconclusive.

CNC(=O)O/N=C/C(C)(C)S(C)=O (stereo unspecified) was read as ALDH1A1 block 28µM*.
Screening CNC(=O)O/N=C(/C)SC returned JMJD2E inh -2%, ALDH1A1 block -3%, LMNA splice mod 0% and Sfp inh 16%.
CC(=O)O[C@H]1C[C@@H](O[C@@H]2[C@H](C)O[C@H](O[C@@H]3[C@H](C)O[C@H](O[C@@H]4CC[C@@]5(C)[C@@H](CC[C@]6(C)[C@]5(C)C[C@H](O)[C@]5(C)[C@@H](C7=CC(=O)OC7)CC[C@@]56O)C4)C[C@@H]3O)C[C@@H]2O)O[C@@H](C)[C@H]1O[C@H]1O[C@@H](CO)[C@@H](O)[C@@H](O)[C@@H]1O was read as JMJD2E inh 6%[25.5 µM], ALDH1A1 block 25%[20.9 µM], G9a block 18%[21.5 µM], LMNA splice mod inconclusive and Sfp inh 19%.
`O=C(c1ccncc1)N1CCC2(CC1)CN(Cc1ccccc1)C2` gave ALDH1A1 block -1%, G9a block 0%[12.7 µM] and Sfp inh 22%.
COCC(=O)N1CCC2(CCCN(Cc3ccncc3)C2)CC1 was read as ALDH1A1 block inconclusive, G9a block -4%[12.7 µM] and Sfp inh -4%.
Screening O=C(c1ccco1)N1CCC[C@@]2(CCN(Cc3ccncc3)C2)C1 returned ALDH1A1 block 10µM*, G9a block 7%[12.7 µM] and Sfp inh inconclusive.
O=C(c1ccco1)N1CCC2(CC1)CN(Cc1ccncc1)C2 was read as ALDH1A1 block 13µM*, G9a block 9%[12.7 µM] and Sfp inh -3%.
`CCc1n[nH]c(=S)n1/N=C/c1c(C)nn(-c2ccccc2)c1Cl` gave JMJD2E inh -4%, ALDH1A1 block 2%, G9a block 1.8µM*, miR-21 reporter -19% and Sfp inh -2%.
COc1ccc2c(c1O)-c1c(OC)c(OC)cc3c1[C@@H](C2)N(C)CC3 was read as JMJD2E inh inconclusive, ALDH1A1 block inconclusive and Sfp inh -42%.
Screening COc1ccc2c(c1O)-c1cccc3c1C(C2)N(C)CC3 (stereo unspecified) returned JMJD2E inh inconclusive, ALDH1A1 block inconclusive, G9a block 12%[12.7 µM] and LMNA splice mod -18%.
C=CCN1CCc2cccc3c2C1Cc1ccc(O)c(O)c1-3 (stereo unspecified) was read as JMJD2E inh inconclusive, ALDH1A1 block inconclusive, G9a block 0.35µM*, LMNA splice mod inconclusive and Sfp inh 45µM*.
Screening CN1CCc2cc(O)cc3c2C1Cc1ccc(O)c(O)c1-3 (stereo unspecified) returned JMJD2E inh inconclusive, ALDH1A1 block inconclusive, G9a block 0.71µM*, LMNA splice mod inconclusive and Sfp inh 40µM*.
CCCN1CCc2cccc3c2[C@H]1Cc1ccc(O)c(O)c1-3 was read as G9a block 1.7µM*.
`c1ccc(N2CCC3(CCNCC3)CC2)cc1` gave ALDH1A1 block -18%, G9a block -3%[12.7 µM] and Sfp inh inconclusive.
For CCON=O the results were G9a block 8%[12.7 µM] and Sfp inh -2%.
O=P(/C(=N/O)N1CCCCC1)(N1CCOCC1)N1CCOCC1 was read as JMJD2E inh 0%, ALDH1A1 block 2%, G9a block 56µM*, LMNA splice mod 5%, miR-21 reporter 0% and Sfp inh 10%.
Screening Cc1cc(Oc2cc(NN3CCCCC3)c([N+](=O)[O-])cc2[N+](=O)[O-])ccc1[N+](=O)[O-] returned G9a block 7.1µM*, miR-21 reporter -1% and Sfp inh 6%.
For C(CCOCC1CO1)COCC1CO1 (stereo unspecified) the results were ALDH1A1 block -14%.

Entries shown so far containing sulfur, in the order listed:
CNC(=O)O/N=C/C(C)(C)S(C)=O (stereo unspecified) was read as ALDH1A1 block 28µM*.
Screening CNC(=O)O/N=C(/C)SC returned JMJD2E inh -2%, ALDH1A1 block -3%, LMNA splice mod 0% and Sfp inh 16%.
`CCc1n[nH]c(=S)n1/N=C/c1c(C)nn(-c2ccccc2)c1Cl` gave JMJD2E inh -4%, ALDH1A1 block 2%, G9a block 1.8µM*, miR-21 reporter -19% and Sfp inh -2%.
